Data: PubChem BioAssay AID624287 (National Center for Advancing Translational Sciences (NCATS), 2012)
What follows is the remainder of the data, with few or none of the hits. Results filed as inconclusive are left out. Active and inactive are the calls of the source. Calls follow the shape of the dose curve; as a rule, active = well fitted activation curve with a large enough effect; inconclusive = small, poorly fitted or top-dose-only effect, or another doubt; inactive = no such curve, though single readings can be large or run the other way; cell line not stated here.

Experiment: qHTS for Agonist of gsp, the Etiologic Mutation Responsible for Fibrous Dysplasia/McCune-Albright Syndrome: qHTS;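 also: phosphodiesterase inhibitor Ro 20-1724 added with compounds to block cAMP breakdown; nearly all actives have a fitted effect of over 60% in size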
Details: gsp mutant cells, cAMP HTRF, 30 min; at 76.9 µM (top of the series)
Source text: McCune-Albright syndrome (MAS) is a rare disease caused by somatic mutations in Gsgsp), a widely expressed protein central in signal transduction from G-coupled protein receptors (GPCRs). The disease symptoms are diverse, owing to the fact that the patients are mosaics with varying degrees of tissue involvement. Greater than 90% of the mutations in Gs in MAS occur at the R201 position and are equally divided between R201H and R201C. The R201 residue is central in the intrinsic GTPase activity of Gs and the H and C mutations lead to loss of, or impairment of, the GTPase activity. […] The tissue phenotype is determined by the role of Gs in the function of a given cell, and excess Gs/cAMP signaling in that cell. […]
1.#Seed 2000 cells/well in 6 ul DMEM 10% FBS, 1% Pen/Strep, 0.5 mg/ml G418 2.#Incubate 16-24 hr at 37C, 5% CO2, 95% humidity 3.#Aspirate leaving 1 ul residual volume 4.#Dispense 5 ul/well DPBS + 1 mM CaCl2, 0.5 mM MgCl2, 0.05% BSA, 0.005% Tween 20 5.#Aspirate leaving 2 ul residual volume 6.#Dispense 23 nl/well compounds in DMSO 7.#Dispense 1 ul/well 300 uM Ro-20174 in DMEM 10% FBS 8.#Incubate 30 min at 37C, 5% CO2, 95% humidity 9.#Dispense 1.5 ul/well HTRF reagent: cAMP-d2 in lysis buffer 10.#Dispense 1.5 ul/well HTRF reagent: anti-cAMP antibody-K in lysis buffer 11.#Incubate 30 min at room temperature 12.#Detect HTRF signal using EnVision plate reader

Structure (SMILES)	activation (cAMP increase)
COc1ccc(CC(C)NCC(O)c2ccc(O)c(NC=O)c2)cc1 (stereo unspecified)	inactive: -34%
